US11028072B2, “2,4-diamino-6-ethylpyrimidine derivatives with antimalarial activities against Plasmodium falciparum” (National Science and Technology Development Agency, priority 2015, dated 2021)

By UniProt entry, the sequences of proteins in these tests, tags left out.
UniProt P13922, whole entry N51I/I164L: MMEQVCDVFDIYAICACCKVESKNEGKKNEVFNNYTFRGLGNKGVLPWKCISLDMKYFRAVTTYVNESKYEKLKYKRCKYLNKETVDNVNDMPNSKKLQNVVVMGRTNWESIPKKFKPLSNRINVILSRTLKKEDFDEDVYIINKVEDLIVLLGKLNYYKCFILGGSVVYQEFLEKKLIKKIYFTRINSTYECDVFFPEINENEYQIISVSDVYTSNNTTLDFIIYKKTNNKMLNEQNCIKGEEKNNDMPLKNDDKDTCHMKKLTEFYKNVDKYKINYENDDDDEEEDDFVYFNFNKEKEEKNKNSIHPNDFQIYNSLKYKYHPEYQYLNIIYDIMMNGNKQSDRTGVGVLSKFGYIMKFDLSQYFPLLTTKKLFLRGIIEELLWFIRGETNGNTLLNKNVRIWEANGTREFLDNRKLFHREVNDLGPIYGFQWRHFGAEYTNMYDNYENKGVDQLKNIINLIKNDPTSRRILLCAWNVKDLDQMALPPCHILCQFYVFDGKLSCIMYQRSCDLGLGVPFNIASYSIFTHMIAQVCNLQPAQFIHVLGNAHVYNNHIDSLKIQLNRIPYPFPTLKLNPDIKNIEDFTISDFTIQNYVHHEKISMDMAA

Tests used:
Vero cells = details: IC50 Vero cells divided by IC50 V1/S
Source text: In Vitro Antimalarial Activites Against P. falciparum and Cytotoxicity Towards Mammalian Cells (Vero Cells)

[1] = tested on: Human dihydrofolate reductase (hDHFR); test: Inhibition of human dihydrofolate reductase (Ki); type: biochemical; details: Ki hDHFR divided by Ki quadruple mutant pfDHFR
[2] = biological target: quadruple mutant N51I + C59R + S108N + I164L (QM) pfDHFR (Plasmodium falciparum, UniProt P13922, I164L/N51I); test: Inhibition of quadruple mutant pfDHFR (Ki); type: biochemical
Experimental: The synthesized 2,4-diamino-6-ethylpyrimdine derivatives as the hydrochloride salts were tested for the activities against Plasmodium falciparum (P. falciparum) according to the standard methods. These include the inhibition of dihydrofolate reductase (DHFR) enzymes of P. falciparum including, wild type (WT) and quadruple mutants (N51IC59RS108NI164L) (QM). The inhibition was expressed as inhibition constants (Ki) in nano molar (nM).

Structure (SMILES) | Selectivity ratio (IC50 ratio) Vero/V1/S (Vero cells) | Selectivity ratio of Ki hDHFR/Ki QM [1] | Ki [2]
CCc1nc(N)nc(N)c1OCCCc1cc(-c2ccc(Cl)cc2)no1 [Compound 45] | >7.85 | 9.50 | –
CCc1nc(N)nc(N)c1OCc1csc(-c2ccc(C)cc2)n1 [Compound 67] | 1.52 | >3657.64 | –
CCc1nc(N)nc(N)c1-c1cn(CCCOc2ccc(C(=O)OC)cc2)nn1 [Compound 12] | <0.95 | 25.75 | –
CCc1nc(N)nc(N)c1-c1cn(CCCOc2ccc(Cl)cc2)nn1 [Compound 11] | <0.97 | 34.84 | –
CCc1nc(N)nc(N)c1OCc1cc(-c2ccc(C(F)(F)F)cc2)no1 [Compound 41] | – | >316.16 | 0.316 ± 0.0623 µM
CCc1nc(N)nc(N)c1OCCCc1cn(Cc2ccc(C(=O)O)cc2)nn1 [Compound 32] | >13.33 | 11.52 | –
CCc1nc(N)nc(N)c1OCc1csc(-c2cccc([N+](=O)[O-])c2)n1 [Compound 62] | 4.50 | 2.51 | –
CCc1nc(N)nc(N)c1OCc1csc(-c2ccccc2)n1 [Compound 60] | >2.40 | 7.10 | –
CCc1nc(N)nc(N)c1-c1cn(CCOc2ccc(Cl)cc2)nn1 [Compound 9] | 2.98 | 155.40 | –
CCc1nc(N)nc(N)c1OCc1coc(-c2ccccc2)n1 [Compound 50] | >3.65 | 5.25 | –
CCc1nc(N)nc(N)c1-c1cn(CCCc2ccccc2)nn1 [Compound 8] | >1.55 | 74.02 | –
CCc1nc(N)nc(N)c1OCc1coc(-c2cccc([N+](=O)[O-])c2)n1 [Compound 52] | >3.31 | >1073.42 | –
CCc1nc(N)nc(N)c1-c1cn(Cc2ccccc2)nn1 [Compound 3] | >2.51 | 225.13 | –
CCc1nc(N)nc(N)c1OCCc1coc(-c2ccccc2)n1 [Compound 58] | 0.11 | 4.41 | –
CCc1nc(N)nc(N)c1OCc1cc(-c2ccc(F)cc2)no1 [Compound 34] | >1.32 | 13.89 | –
CCc1nc(N)nc(N)c1OCCCc1cc(-c2cccc(C(=O)OC)c2)no1 [Compound 48] | 7.60 | 28.95 | –
CCc1nc(N)nc(N)c1OCc1cn(-c2ccc([N+](=O)[O-])cc2)nn1 [Compound 17] | >3.35 | >250.97 | –
CCc1nc(N)nc(N)c1OCCCc1cc(-c2cccc(C(F)(F)F)c2)no1 [Compound 46] | 0.59 | 15.01 | –
CCc1nc(N)nc(N)c1OCc1csc(-c2ccc(OC)cc2)n1 [Compound 68] | 3.37 | 11.57 | –

Structure (SMILES) | Selectivity ratio (IC50 ratio) Vero/V1/S (Vero cells) | Selectivity ratio of Ki hDHFR/Ki QM [1] | Ki [2]
CCc1nc(N)nc(N)c1OCc1cc(-c2ccc(Br)cc2)no1 [Compound 36] | >1.43 | 20.85 | –
CCc1nc(N)nc(N)c1OCc1coc(-c2cccc(C)c2)n1 [Compound 51] | 3.47 | 5.34 | –
CCc1nc(N)nc(N)c1OCc1cc(-c2cccc(C(=O)O)c2)no1 [Compound 40] | >14.79 | 131.89 | –
CCc1nc(N)nc(N)c1OCc1cc(-c2cccc(C(F)(F)F)c2)no1 [Compound 37] | 1.83 | >942.86 | –
CCc1nc(N)nc(N)c1OCCCc1cc(-c2cccc(C#N)c2)no1 [Compound 47] | 0.10 | 21.03 | –
CCc1nc(N)nc(N)c1OCc1cc(-c2ccccc2)no1 [Compound 33] | >1.59 | 38.93 | –
CCc1nc(N)nc(N)c1OCCc1csc(-c2ccccc2)n1 [Compound 76] | 0.075 | 2.88 | –
CCc1nc(N)nc(N)c1OCCCc1cc(-c2cccc(C(=O)O)c2)no1.Cl [Compound 49, 2,4-diamino-6-ethyl-5-(3-(3-(3-(carboxy)phenyl)isoxazol-5-yl)propoxy)pyrimidine Hydrochloride] | >1052.63 | 43.59 | –
CCc1nc(N)nc(N)c1OCCCc1cn(-c2ccc(C(=O)O)cc2)nn1 [Compound 25] | 1.38 | 12.73 | –
CCc1nc(N)nc(N)c1OCCc1cn(-c2cccc(C(=O)O)c2)nn1 [Compound 20] | >14.37 | 46.43 | –
CCc1nc(N)nc(N)c1OCc1csc(-c2ccc(C(=O)OC)cc2)n1 [Compound 74] | >3.15 | 13.15 | –
CCc1nc(N)nc(N)c1OCc1csc(-c2ccc(Br)cc2)n1 [Compound 71] | >1.34 | 8.36 | –
CCc1nc(N)nc(N)c1OCc1cc(-c2ccc(Cl)cc2)no1 [Compound 35] | >1.20 | 18.00 | –
CCc1nc(N)nc(N)c1OCCCc1cn(-c2cccc(C(=O)O)c2)nn1 [Compound 23] | >78.13 | 54.02 | –
CCc1nc(N)nc(N)c1OCc1csc(-c2ccc(Cl)cc2)n1 [Compound 70] | 2.61 | 9.46 | –
CCc1nc(N)nc(N)c1OCc1coc(-c2ccc(OCC(=O)OCc3ccccc3)cc2)n1 [Compound 56] | >4.29 | >2139.49 | –
CCc1nc(N)nc(N)c1OCc1csc(-c2cccc(C)c2)n1 [Compound 61] | 1.74 | 3.49 | –
CCc1nc(N)nc(N)c1OCc1cc(-c2cccc([N+](=O)[O-])c2)no1 [Compound 39] | >5.51 | >2040.39 | –
CCc1nc(N)nc(N)c1OCc1cn(-c2cccc([N+](=O)[O-])c2)nn1 [Compound 14] | >11.29 | >2108.90 | –
